Laboratory results as given in article PMC3988174.

Amino acid sequences for entries named in this document (tags omitted). Residues count along the entry.
UniProt O81283, 728-1092: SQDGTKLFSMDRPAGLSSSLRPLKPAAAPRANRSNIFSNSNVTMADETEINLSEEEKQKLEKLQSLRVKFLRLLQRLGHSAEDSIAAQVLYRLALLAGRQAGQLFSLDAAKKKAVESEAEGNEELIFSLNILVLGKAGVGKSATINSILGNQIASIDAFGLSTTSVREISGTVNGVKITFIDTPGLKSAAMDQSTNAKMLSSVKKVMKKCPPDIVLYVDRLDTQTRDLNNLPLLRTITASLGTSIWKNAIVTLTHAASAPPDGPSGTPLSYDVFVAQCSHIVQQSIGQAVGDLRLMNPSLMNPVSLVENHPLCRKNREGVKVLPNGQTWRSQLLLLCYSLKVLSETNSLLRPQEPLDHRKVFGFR

Target: atToc159 G-domain bait (Arabidopsis thaliana) (UniProt O81283)
Assay: two-hybrid; pairwise split-ubiquitin yeast two-hybrid of isolated NubG-preys with Toc159G, Toc132G or Toc132AG bait in NMY51; growth on SD-LWHA (3-AT) and quantitative β-Gal assay, activity relative to a reference bait set to 100%

Substance: RuBisCO small subunit 3B (from UniProt P10798 1-181) (natural protein)
- % decrease in strength of interaction (β-Gal) with Toc159G against Toc132G: -7.84%

Substance: Light harvesting complex photosystem II (from UniProt Q07473 1-290) (natural protein)
- % increase in strength of interaction (β-Gal) with Toc159G against Toc132G: 23%

Substance: Light Harvesting Complex Of Photosystem II 5 (from UniProt Q9XF89 1-280) (natural protein)
- % increase in strength of interaction (β-Gal) with Toc159G against Toc132G: 21%
